{
  "source": "patent US12331052B2",
  "about": "“Organic compounds” (INTRA-CELLULAR THERAPIES, INC., priority 2018, dated 2025)",
  "key": {"CD-1 mice [1]": {"system": "CD-1 mice", "test": "Mouse tail flick assay: analgesia after 14-day chronic administration"}, "CD-1 mice [2]": {"system": "CD-1 mice", "test": "Mouse tail flick assay: time course for analgesia", "assay_type": "in vivo", "details": "1 mg/kg s.c."}, "Mu opiate receptor": {"molecular_target": "Mu opiate receptor (Homo sapiens, UniProt P35372)", "test": "Receptor binding, Mu opiate receptor", "details": "@ 100 nM"}},
  "data": [
    {"molecule": "O=C1CN2c3c(cccc3[C@@H]3CN(CCCc4noc5cc(F)ccc45)CC[C@@H]32)N1", "values": [
      {"measurement": "Latency", "setting": "CD-1 mice [1]; (B) chronic Ex. 3, 0.3 mg/kg, acute Vehicle", "result": 0.893, "unit": "s"},
      {"measurement": "Latency", "setting": "CD-1 mice [1]; (C) chronic Ex. 3, 3.0 mg/kg, acute Vehicle", "result": 1.04, "unit": "s"}
    ]},
    {"molecule": "O=C1CN2c3c(cccc3[C@@H]3CN(CCCOc4ccc(F)cc4)CC[C@@H]32)N1", "note": "[Example 1, (6bR,10aS)-8-(3-(4-fluorophenoxy)propyl)-6b,7,8,9,10,10a-hexahydro-1H-pyrido[3′,4′:4,5]pyrrolo[1,2,3-de]quinoxalin-2(3H)-one]", "values": [
      {"measurement": "TF Latency", "setting": "CD-1 mice [2]; 30 min prior", "result": 5.77, "unit": "s"},
      {"measurement": "TF Latency", "setting": "CD-1 mice [2]; 2 h prior", "result": 2.42, "unit": "s"},
      {"measurement": "TF Latency", "setting": "CD-1 mice [2]; 4 h prior", "result": 1.48, "unit": "s"},
      {"measurement": "TF Latency", "setting": "CD-1 mice [2]; 6 h prior", "result": 1.36, "unit": "s"},
      {"measurement": "TF Latency", "setting": "CD-1 mice [2]; 24 h prior", "result": 1.29, "unit": "s"},
      {"measurement": "Latency", "setting": "CD-1 mice [1]; (A) chronic Vehicle, acute 0.01 mg/kg s.c.", "result": 1.87, "unit": "s"},
      {"measurement": "Latency", "setting": "CD-1 mice [1]; (A) chronic Vehicle, acute 0.03 mg/kg s.c.", "result": 2.50, "unit": "s"},
      {"measurement": "Latency", "setting": "CD-1 mice [1]; (A) chronic Vehicle, acute 0.1 mg/kg s.c.", "result": 5.26, "unit": "s"},
      {"measurement": "Latency", "setting": "CD-1 mice [1]; (A) chronic Vehicle, acute 0.3 mg/kg s.c.", "result": 8.26, "unit": "s"},
      {"measurement": "Latency", "setting": "CD-1 mice [1]; (A) chronic Vehicle, acute 1.0 mg/kg s.c.", "result": 9.74, "unit": "s"},
      {"measurement": "Latency", "setting": "CD-1 mice [1]; (B) chronic Ex. 3, 0.3 mg/kg, acute Ex. 1, 0.01 mg/kg", "result": 1.66, "unit": "s"},
      {"measurement": "Latency", "setting": "CD-1 mice [1]; (B) chronic Ex. 3, 0.3 mg/kg, acute Ex. 1, 0.03 mg/kg", "result": 1.30, "unit": "s"},
      {"measurement": "Latency", "setting": "CD-1 mice [1]; (B) chronic Ex. 3, 0.3 mg/kg, acute Ex. 1, 0.1 mg/kg", "result": 2.60, "unit": "s"},
      {"measurement": "Latency", "setting": "CD-1 mice [1]; (B) chronic Ex. 3, 0.3 mg/kg, acute Ex. 1, 0.3 mg/kg", "result": 3.93, "unit": "s"},
      {"measurement": "Latency", "setting": "CD-1 mice [1]; (B) chronic Ex. 3, 0.3 mg/kg, acute Ex. 1, 1.0 mg/kg", "result": 5.64, "unit": "s"},
      {"measurement": "Latency", "setting": "CD-1 mice [1]; (C) chronic Ex. 3, 3.0 mg/kg, acute Ex. 1, 0.01 mg/kg", "result": 1.64, "unit": "s"},
      {"measurement": "Latency", "setting": "CD-1 mice [1]; (C) chronic Ex. 3, 3.0 mg/kg, acute Ex. 1, 0.03 mg/kg", "result": 1.80, "unit": "s"},
      {"measurement": "Latency", "setting": "CD-1 mice [1]; (C) chronic Ex. 3, 3.0 mg/kg, acute Ex. 1, 0.1 mg/kg", "result": 3.94, "unit": "s"},
      {"measurement": "Latency", "setting": "CD-1 mice [1]; (C) chronic Ex. 3, 3.0 mg/kg, acute Ex. 1, 0.3 mg/kg", "result": 4.84, "unit": "s"},
      {"measurement": "Latency", "setting": "CD-1 mice [1]; (C) chronic Ex. 3, 3.0 mg/kg, acute Ex. 1, 1.0 mg/kg", "result": 7.94, "unit": "s"}
    ]},
    {"molecule": "O=C1CN2c3c(cccc3[C@@H]3CN(CCCOc4ccccc4F)CC[C@@H]32)N1", "note": "[Example 21, (6bR,10aS)-8-(3-(2-fluorophenoxy)propyl)-6b,7,8,9,10,10a-hexahydro-1H-pyrido[3′,4′:4,5]pyrrolo[1,2,3-de]quinoxalin-2(3H)-one]", "values": [
      {"measurement": "maximum inhibition", "setting": "Mu opiate receptor", "result": 34, "unit": "% @"}
    ]},
    {"molecule": "CC(C)N1C(=O)CN2c3c(cccc31)[C@@H]1CN(CCCOc3ccc(F)cc3)CC[C@@H]12", "note": "[Example 22, (6bR,10aS)-8-(3-(4-fluorophenoxy)propyl)-3-isopropyl-6b,7,8,9,10,10a-hexa-hydro-1H-pyrido[3′,4′:4,5]pyrrolo[1,2,3-de]quinoxalin-2(3H)-one]", "values": [
      {"measurement": "maximum inhibition", "setting": "Mu opiate receptor", "result": 17, "unit": "% @"}
    ]},
    {"molecule": "O=C1CN2c3c(cccc3[C@@H]3CN(CCCOc4ccc(I)cc4)CC[C@@H]32)N1", "note": "[Example 23, (6bR,10aS)-8-(3-(4-iodophenoxy)propyl)-6b,7,8,9,10,10a-hexahydro-1H-pyrido[3′,4′:4,5]pyrrolo[1,2,3-de]quinoxalin-2(3H)-one]", "values": [
      {"measurement": "maximum inhibition", "setting": "Mu opiate receptor", "result": 88, "unit": "% @"}
    ]},
    {"molecule": "O=C1CN2c3c(cccc3[C@@H]3CN(CCCOc4ccc(Br)cc4)CC[C@@H]32)N1", "note": "[Example 24, (6bR,10aS)-8-(3-(4-bromophenoxy)propyl)-6b,7,8,9,10,10a-hexahydro-1H-pyrido[3′,4′:4,5]pyrrolo[1,2,3-de]quinoxalin-2(3H)-one]", "values": [
      {"measurement": "maximum inhibition", "setting": "Mu opiate receptor", "result": 91, "unit": "% @"}
    ]},
    {"molecule": "Cc1ccc(OCCCN2CC[C@H]3[C@@H](C2)c2cccc4c2N3CC(=O)N4)cc1", "note": "[Example 25, (6bR,10aS)-8-(3-(p-tolyloxy)propyl)-6b,7,8,9,10,10a-hexahydro-1H-pyrido-[3′,4′:4,5]pyrrolo[1,2,3-de]quinoxalin-2(3H)-one]", "values": [
      {"measurement": "maximum inhibition", "setting": "Mu opiate receptor", "result": 54, "unit": "% @"}
    ]}
  ]
}
